Measurements reported in paper PMC8413284.

Chains of the proteins cited; added tags and fusions are not shown. A change or cut given only in a name is not applied to a line headed by its entry. A line that says so, or that is headed by a name, gives the form on record, which may keep a tag or linker. Residues count along the entry.
UniProt P02745, 23-245: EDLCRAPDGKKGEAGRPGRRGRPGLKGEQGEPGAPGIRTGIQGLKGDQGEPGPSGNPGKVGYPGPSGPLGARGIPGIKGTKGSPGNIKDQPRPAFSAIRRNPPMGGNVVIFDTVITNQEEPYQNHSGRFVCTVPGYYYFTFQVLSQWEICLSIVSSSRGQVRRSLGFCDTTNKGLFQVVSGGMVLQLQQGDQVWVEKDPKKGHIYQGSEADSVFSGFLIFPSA
purified human C1q, UniProt P02746, 28-253: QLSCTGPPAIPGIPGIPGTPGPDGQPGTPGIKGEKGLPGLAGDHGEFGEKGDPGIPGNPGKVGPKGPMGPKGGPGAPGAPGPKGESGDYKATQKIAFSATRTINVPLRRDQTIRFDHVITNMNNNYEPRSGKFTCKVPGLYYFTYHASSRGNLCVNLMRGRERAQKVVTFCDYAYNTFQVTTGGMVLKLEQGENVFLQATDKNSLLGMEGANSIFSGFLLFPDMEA
purified human C1q, UniProt P02747, 29-245: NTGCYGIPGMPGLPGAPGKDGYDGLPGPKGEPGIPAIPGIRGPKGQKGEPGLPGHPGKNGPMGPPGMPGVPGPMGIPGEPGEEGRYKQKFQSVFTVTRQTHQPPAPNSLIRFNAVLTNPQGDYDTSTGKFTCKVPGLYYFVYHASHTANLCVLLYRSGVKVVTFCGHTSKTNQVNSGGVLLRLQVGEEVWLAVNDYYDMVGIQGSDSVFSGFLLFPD
rituximab hIgG1 μtp C575S P331S (human), light, as listed by the source, chain 2 of 2: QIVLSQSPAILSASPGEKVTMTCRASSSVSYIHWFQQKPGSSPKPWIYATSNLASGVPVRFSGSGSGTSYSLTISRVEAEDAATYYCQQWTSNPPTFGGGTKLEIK
rituximab hIgG1 μtp C575S P331S (human), heavy, as listed by the source, chain 1 of 2: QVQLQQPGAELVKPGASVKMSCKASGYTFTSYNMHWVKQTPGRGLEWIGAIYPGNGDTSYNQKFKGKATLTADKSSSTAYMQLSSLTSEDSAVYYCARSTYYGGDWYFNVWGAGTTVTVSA

Tests used:
[1] = biological target: rituximab hIgG1 μtp C575S P331S (human)
[2] = biological target: rituximab hIgG2 μtp pre-formed hexamer (human)
[3] = biological target: rituximab hIgG1 μtp pre-formed hexamer (human)

purified human C1q (from UniProt P02745 23-245; P02746 28-253; P02747 29-245) (complex)
drop in CDC killing with the P331S mutation [1]: 53% | CDC lysis of Ramos cells at 10 µg/ml mAb [2]: 100% | enhancement in CDC activity above wild-type hIgG1 [3]: 130 fold
